The chains behind the UniProt entries cited, without tags or fusion partners.
UniProt P21448, whole entry: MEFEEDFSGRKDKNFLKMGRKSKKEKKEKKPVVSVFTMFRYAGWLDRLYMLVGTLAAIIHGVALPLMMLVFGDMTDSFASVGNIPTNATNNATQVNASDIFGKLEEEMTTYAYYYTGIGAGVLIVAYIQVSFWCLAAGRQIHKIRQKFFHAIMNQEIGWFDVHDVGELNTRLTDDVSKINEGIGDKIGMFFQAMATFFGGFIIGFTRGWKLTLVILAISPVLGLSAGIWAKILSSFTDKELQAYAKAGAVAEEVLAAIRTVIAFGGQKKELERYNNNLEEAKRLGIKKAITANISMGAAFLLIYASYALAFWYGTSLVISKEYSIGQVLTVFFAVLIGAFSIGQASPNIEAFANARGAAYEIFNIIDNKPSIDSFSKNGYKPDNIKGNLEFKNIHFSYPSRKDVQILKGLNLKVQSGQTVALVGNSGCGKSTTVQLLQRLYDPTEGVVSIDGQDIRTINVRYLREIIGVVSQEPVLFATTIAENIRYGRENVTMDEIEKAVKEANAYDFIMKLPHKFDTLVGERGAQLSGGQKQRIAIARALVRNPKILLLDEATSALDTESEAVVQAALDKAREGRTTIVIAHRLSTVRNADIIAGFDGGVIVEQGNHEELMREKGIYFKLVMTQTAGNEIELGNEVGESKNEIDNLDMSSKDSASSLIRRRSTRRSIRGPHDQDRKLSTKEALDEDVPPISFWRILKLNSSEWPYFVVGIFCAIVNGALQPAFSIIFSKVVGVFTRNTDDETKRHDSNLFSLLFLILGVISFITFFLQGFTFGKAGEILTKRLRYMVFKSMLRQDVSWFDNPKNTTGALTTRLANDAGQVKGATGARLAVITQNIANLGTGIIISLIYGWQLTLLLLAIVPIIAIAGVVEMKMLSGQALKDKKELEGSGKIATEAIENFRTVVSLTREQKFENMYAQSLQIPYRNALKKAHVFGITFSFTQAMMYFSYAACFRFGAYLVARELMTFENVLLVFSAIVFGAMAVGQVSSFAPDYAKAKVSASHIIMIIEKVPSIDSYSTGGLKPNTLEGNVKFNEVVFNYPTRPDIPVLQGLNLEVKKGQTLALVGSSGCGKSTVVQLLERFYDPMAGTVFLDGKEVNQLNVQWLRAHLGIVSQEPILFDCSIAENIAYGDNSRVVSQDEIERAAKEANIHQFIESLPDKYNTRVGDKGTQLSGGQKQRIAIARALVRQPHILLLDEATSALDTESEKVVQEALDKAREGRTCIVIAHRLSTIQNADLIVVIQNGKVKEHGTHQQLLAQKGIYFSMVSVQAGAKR

In US20040029100A1, “Rapid screen to identify p-glycoprotein substrates and high affinity modulators” (priority 2000, published 2004):

Biological target: P-glycoprotein (Pgp) purified from MDR CH^RB30 Chinese hamster ovary cells (Cricetulus griseus, UniProt P21448)
Test: Quenching of intrinsic Trp fluorescence of purified Pgp by nucleotides, drugs and peptides

COc1cc2c(c(OC)c1OC)-c1ccc(OC)c(=O)cc1[C@@H](NC(C)=O)CC2 [colchicine]
Kd: 74.9 ± 8.6 µM
